Test results taken from patent publication US20080213813A1, “Histone deacetylase inhibitor and use thereof” (priority 2002, published 2008).

Target: T1, HDAC6 (Homo sapiens, UniProt Q9UBN7)
T1 sequence (Q9UBN7 1-1215): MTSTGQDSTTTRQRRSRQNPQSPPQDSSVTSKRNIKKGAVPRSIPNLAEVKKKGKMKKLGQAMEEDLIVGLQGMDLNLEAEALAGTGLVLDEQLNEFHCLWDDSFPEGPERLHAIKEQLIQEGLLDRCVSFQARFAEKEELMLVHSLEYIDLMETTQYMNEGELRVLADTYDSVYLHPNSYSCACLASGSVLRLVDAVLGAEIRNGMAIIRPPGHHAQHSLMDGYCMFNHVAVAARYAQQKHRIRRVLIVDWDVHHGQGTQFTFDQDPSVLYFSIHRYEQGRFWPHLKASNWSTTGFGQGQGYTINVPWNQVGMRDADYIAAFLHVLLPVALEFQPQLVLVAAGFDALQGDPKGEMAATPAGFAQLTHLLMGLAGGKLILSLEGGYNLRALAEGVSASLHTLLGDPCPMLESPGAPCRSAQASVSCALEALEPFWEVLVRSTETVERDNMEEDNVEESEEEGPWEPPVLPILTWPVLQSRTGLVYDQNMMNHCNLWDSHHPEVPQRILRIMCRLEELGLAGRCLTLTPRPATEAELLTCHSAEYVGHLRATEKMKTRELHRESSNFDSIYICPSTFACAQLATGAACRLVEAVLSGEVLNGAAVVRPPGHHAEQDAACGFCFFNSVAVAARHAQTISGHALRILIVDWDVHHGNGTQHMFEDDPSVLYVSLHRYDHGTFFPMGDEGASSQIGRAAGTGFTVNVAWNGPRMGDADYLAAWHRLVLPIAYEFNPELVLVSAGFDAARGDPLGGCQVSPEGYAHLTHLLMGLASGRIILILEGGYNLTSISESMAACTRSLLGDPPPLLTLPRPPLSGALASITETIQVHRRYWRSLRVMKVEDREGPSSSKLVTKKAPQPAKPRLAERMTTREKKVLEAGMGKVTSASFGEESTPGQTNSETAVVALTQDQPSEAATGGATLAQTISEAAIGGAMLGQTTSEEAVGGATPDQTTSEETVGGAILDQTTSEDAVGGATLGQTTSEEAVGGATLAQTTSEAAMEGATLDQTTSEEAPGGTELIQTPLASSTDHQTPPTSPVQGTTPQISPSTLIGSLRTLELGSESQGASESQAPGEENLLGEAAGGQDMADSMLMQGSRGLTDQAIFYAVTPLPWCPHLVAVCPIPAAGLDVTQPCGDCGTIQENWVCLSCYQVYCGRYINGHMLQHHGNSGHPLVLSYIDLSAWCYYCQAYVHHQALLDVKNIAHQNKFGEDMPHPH
Assay: Deacetylating activity of recombinant HDAC6 (HDAC Fluorescent Activity Assay/Drug Discovery Kit)
Conditions: 1 μM Trichostatin A in assay; recombinant His6-HDAC6; FIG. 1

Structure (SMILES): CC(/C=C/C(=O)NO)=C\[C@@H](C)C(=O)c1ccc(N(C)C)cc1 [Trichostatin A]
- deacetylating activity of the HDAC6 protein: completely inhibited
